From patent US11760775B2, “Steroids and protein-conjugates thereof” (Regeneron Pharmaceuticals, Inc., priority 2016, dated 2023)

Protein sequences, listed by entry. Tags and fused reporters are not part of them. Residues count along the entry.
UniProt P04150, whole entry, looked up: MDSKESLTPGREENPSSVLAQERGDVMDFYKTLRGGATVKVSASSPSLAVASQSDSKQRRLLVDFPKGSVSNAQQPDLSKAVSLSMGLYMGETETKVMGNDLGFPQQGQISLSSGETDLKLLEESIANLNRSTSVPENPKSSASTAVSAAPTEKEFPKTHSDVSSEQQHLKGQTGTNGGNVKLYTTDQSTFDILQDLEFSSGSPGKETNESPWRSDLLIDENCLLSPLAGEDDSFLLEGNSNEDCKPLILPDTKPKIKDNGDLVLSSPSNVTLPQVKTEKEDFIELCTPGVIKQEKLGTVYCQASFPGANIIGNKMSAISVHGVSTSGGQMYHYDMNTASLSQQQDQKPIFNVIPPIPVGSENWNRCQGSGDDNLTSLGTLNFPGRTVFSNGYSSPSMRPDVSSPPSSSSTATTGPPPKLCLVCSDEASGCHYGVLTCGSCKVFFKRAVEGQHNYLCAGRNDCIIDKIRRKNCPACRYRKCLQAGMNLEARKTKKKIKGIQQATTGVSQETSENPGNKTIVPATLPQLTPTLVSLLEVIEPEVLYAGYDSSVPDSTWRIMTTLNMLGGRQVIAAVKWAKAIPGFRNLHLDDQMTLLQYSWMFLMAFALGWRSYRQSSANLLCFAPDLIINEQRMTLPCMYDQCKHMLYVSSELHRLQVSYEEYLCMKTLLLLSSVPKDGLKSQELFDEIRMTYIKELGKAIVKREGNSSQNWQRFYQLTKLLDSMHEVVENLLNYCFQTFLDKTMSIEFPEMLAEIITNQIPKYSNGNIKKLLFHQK
UniProt P04150, 524-758 limits assumed: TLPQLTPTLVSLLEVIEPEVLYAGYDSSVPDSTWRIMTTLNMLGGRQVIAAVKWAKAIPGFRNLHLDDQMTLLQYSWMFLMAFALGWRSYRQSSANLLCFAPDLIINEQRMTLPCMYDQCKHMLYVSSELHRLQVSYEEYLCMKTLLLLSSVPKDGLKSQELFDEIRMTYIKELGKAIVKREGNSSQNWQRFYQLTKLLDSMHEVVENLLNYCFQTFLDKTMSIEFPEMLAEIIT

Columns and labels:
[1] = target: GR activation in 293/PRLR/GRE-Luc cells (HEK293/9xUAS-Luc2P/pBind-GR/PRLR-HA high cells) (UniProt P04150); assay: GR co-activator luciferase reporter cell based assay in 293/PRLR/GRE-Luc cells; parameters: species or system human
[2] = target: Glucocorticoid Receptor (GR) (Homo sapiens (Human), UniProt P04150); assay: LanthaScreen TR-FRET GR Competitive Binding Assay (cell free); details: read-out: GR Competitive Binding Assay IC50

EC50 ([1]; read-out: HEK293/9xUAS-Luc2P/pBind-GR/PRLR-HA high cells EC50, 72 hours of incubation) | Structure (SMILES) | Activation (fold activation relative to Budesonide) in HEK293/9xUAS-Luc2P/pBind-GR/PRLR-HA high cells ([1]; 72 hours of incubation) | IC50 [2] | HEK293/9xUAS-Luc2P/pBind-GR/PRLR-HA high cells activation relative to Budesonide ([1]; fold activation vs Budesonide)
10 to 100 nM | CCCC1OC2CC3C4CCC5=CC(=O)C=CC5(C)C4C(O)CC3(C)C2(C(=O)COc2ccc(N)c(F)c2)O1 (centres unmarked) | Full activation (Full activation: >75% of fold activation induced by Budesonide) | 10 to 100 nM | –
– | C[C@H]1C[C@@H]2[C@H]([C@@H](O)C[C@@]3(C)[C@H]2CC[C@]3(O)C(=O)COc2ccc(N)cc2)[C@@]2(C)C=CC(=O)C=C12 | – | < 10 nM | No
